# Marks after values point to notes of the source that are not given here. Starred links: 1 amine or outer side, 2 acyl side, 3 side chain; linkers in the order of their positions; H or OH if unused. Non-standard residues stand in square brackets, D forms with d. Residues, ends and D or L forms follow the SMILES beside them. Pentanoyl(2-O,4-OH,5-Cl) = O=C(O)C(O)CC(O)CCl; X3 = C[C@H]1CCN([*:1])[C@@H]1C(=O)[*:2]; X2 = O=C([C@@H](CC(O)CCl)O[*:1])[*:2]; dLac(3-vinyl) = C=CC[C@@H](O)C(=O)O; NMeI = CC[CH](C)[CH](NC)C(=O)O; X1 = CC1CCN([*:1])C1C(=O)[*:2]; dHica = CC(C)C[C@@H](O)C(=O)O; NMeV = CN[C@H](C(=O)O)C(C)C; NMeA = CN[CH](C)C(=O)O; βAla = NCCC(=O)O
# Tested on: Brine shrimp (Artemia salina)
row,Compound,Brine shrimp lethality (LD50)
1,"CCC(C)C1NC(=O)C2C(C)CCN2C(=O)C(CC(O)CCl)OC(=O)CCNC(=O)C(C)N(C)C(=O)C(C(C)CC)N(C)C1=O (centres unmarked) [Compound 1, Trichomide D] (cyclo([X1]I[NMeI][NMeA][βAla][Pentanoyl(2-O,4-OH,5-Cl)]); configuration not given here)",0.48 µM
2,"C=CC[C@H]1OC(=O)CCNC(=O)[C@H](C)N(C)C(=O)[C@H]([C@@H](C)CC)N(C)C(=O)[C@H]([C@@H](C)CC)NC(=O)[C@@H]2[C@@H](C)CCN2C1=O [Compound 2, destruxin A5] (cyclo(I[NMeI][NMeA][βAla][dLac(3-vinyl)][X3]))",0.74 µM
3,"CC[C@H](C)[C@@H]1NC(=O)[C@@H]2[C@@H](C)CCN2C(=O)[C@@H](C[C@@H](C)CO)OC(=O)CCNC(=O)[C@H](C)N(C)C(=O)[C@H]([C@@H](C)CC)N(C)C1=O [Compound 3, trichomide A]",>50 µM
4,"CC[C@H](C)[C@@H]1NC(=O)[C@@H]2CCCN2C(=O)[C@@H](CC(C)C)OC(=O)CCNC(=O)[C@H](C)N(C)C(=O)[C@H]([C@@H](C)CC)N(C)C1=O [Compound 4, homodestruxin B] (cyclo(I[NMeI][NMeA][βAla][dHica]P))",3.22 µM
5,"CC[C@H](C)[C@@H]1NC(=O)[C@@H]2CCCN2C(=O)[C@@H](CC(O)CCl)OC(=O)CCNC(=O)[C@H](C)N(C)C(=O)[C@H](C(C)C)N(C)C1=O (some centres unmarked) [Compound 5, destruxin chlorohydrin] (cyclo(I[NMeV][NMeA][βAla][X2]P))",2.47 µM
6,"C=CC[C@H]1OC(=O)CCNC(=O)[C@H](C)N(C)C(=O)[C@H](C(C)C)N(C)C(=O)[C@H]([C@@H](C)CC)NC(=O)[C@@H]2[C@@H](C)CCN2C1=O [Compound 6, roseotoxin B] (cyclo(I[NMeV][NMeA][βAla][dLac(3-vinyl)][X3]))",2.81 µM
7,"CC[C@H](C)[C@@H]1NC(=O)[C@@H]2[C@@H](C)CCN2C(=O)[C@@H](CC(C)CO)OC(=O)CCNC(=O)[C@H](C)N(C)C(=O)[C@H](C(C)C)N(C)C1=O (some centres unmarked) [Compound 7, roseotoxin C]",>50 µM
8,"COc1cc2c(c(OC)c1OC)-c1ccc(OC)c(=O)cc1[C@@H](NC(C)=O)CC2 [colchicine, reference compound]",8.4 ^a μM

# — publication PMC6316070 (Marine Drugs, 2018)
